The text below walks through data of paper PMC3483245, “Optimization of a direct spectrophotometric method to investigate the kinetics and inhibition of sialidases” (BMC Biochemistry, 2012).

The chains behind the UniProt entries cited, without tags or fusion partners. Residues count along the entry.
UniProt P62576, 54-1035: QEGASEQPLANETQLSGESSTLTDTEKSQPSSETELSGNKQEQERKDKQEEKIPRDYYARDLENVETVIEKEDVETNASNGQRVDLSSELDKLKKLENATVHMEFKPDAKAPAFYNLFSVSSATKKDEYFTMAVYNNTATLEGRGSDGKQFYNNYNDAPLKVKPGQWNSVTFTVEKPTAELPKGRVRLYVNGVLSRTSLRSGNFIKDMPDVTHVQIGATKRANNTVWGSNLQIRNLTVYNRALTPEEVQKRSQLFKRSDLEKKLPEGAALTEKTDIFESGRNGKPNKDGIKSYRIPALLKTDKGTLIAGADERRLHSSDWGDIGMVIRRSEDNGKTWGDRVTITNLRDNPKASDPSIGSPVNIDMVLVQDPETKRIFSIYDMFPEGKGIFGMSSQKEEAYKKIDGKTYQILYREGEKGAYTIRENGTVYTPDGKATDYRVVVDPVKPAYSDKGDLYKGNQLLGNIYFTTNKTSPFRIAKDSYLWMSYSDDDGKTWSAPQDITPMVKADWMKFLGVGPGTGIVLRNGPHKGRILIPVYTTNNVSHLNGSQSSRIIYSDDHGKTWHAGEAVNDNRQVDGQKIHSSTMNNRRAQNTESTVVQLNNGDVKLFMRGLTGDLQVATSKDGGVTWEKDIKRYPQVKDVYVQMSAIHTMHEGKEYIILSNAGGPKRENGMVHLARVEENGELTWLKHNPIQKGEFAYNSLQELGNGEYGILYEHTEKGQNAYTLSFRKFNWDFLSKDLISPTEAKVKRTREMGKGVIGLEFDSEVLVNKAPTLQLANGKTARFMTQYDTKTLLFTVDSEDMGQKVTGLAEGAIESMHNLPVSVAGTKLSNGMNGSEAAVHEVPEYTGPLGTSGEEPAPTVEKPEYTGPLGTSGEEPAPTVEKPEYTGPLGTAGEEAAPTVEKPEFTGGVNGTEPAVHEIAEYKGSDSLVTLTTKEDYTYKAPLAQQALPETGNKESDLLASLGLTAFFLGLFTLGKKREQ

The assay deals with NanA (Streptococcus pneumoniae, UniProt P62576). The experiment in a line: biochemical.

As usually defined, the Ki is the equilibrium dissociation constant of an inhibitor or competing ligand from its target. In turn, `CC(=O)N[C@H]1[C@H]([C@H](O)[C@H](O)CO)OC(C(=O)O)=C[C@@H]1O` [Neu5Ac2en, 2-deoxy-2,3-didehydro-N-acetylneuraminic acid] returned an inhibition constant Ki of 1600 nM.
